According to paper PMC6507131, “Evaluation of the novel liver micronucleus assay using formalin-fixed tissues” (Genes and Environment, 2019):
Some compounds may have been tested in ways that are not shown here.

Test system: hepatocytes of formalin-fixed liver tissues
Assay: Repeated-dose liver micronucleus (RDLMN) assay, formalin-fixed method
Conditions: comparison between the two methods, rats treated 14 or 28 days

For `Cc1ccc([N+](=O)[O-])cc1[N+](=O)[O-]`, the “Frequency of MNHEPs by the formalin-fixed method compared with the collagenase digestion method” value was “Relatively higher frequencies of MNHEPs”.
